Among the data in PubChem BioAssay AID602429 (Sanford-Burnham Center for Chemical Genomics, 2012) are inhibition values, retold here.

Protein sequences, listed by entry. Tags and fused reporters are not part of them.
UniProt P63165, whole entry: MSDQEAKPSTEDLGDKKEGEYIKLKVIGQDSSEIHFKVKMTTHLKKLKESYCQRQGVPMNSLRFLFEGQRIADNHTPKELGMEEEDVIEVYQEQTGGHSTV

The list shows a part of the results, in another mix than the full data. Calls of active or inactive are those of the source. Cut-off read from the data, not from the text of the source: active = inhibition above about 37%; inactive = the rest.

The experiment deals with Small ubiquitin-related modifier 1 (Homo sapiens) (UniProt P63165). In words: modulators of SUMO1 protein-protein interactions, primary screen, biochemical, uHTS (AID 602429). As to conditions: SUMO1 binding to a labelled peptide, TR-FRET, 1 h; at 20 µM; active compounds read high. In general terms: TR-FRET usually uses a lanthanide donor and a delayed reading to cut background.
Usually inhibition stands for the relative decrease from the control value, in per cent. As for `Fc1ccccc1NC1CCN(Cc2ccccc2)CC1`, the inhibition was inactive: -1.69%.

With `Cc1ccc(C(=O)NCC2(N3CCCCC3)CCCCC2)o1`, the inhibition is inactive: 1.97%.

`Cc1ccc(NC2(C#N)CCN(Cc3ccccc3)CC2)cc1`: the inhibition is inactive: -8.96%.

Take `CCC(c1nnnn1C1CCCCC1)N1CCC(n2c(=O)[nH]c3ccccc32)CC1` (stereo not drawn): the inhibition was inactive: -2.21%.

Turning to `COc1cccc(C(c2nnnn2C2CCCCC2)N2CCC(n3c(=O)[nH]c4ccccc43)CC2)c1OC` (stereo not drawn), the inhibition is inactive: 3.45%.

As for `CC(=O)N(c1ccccc1)C1CCNCC1`, the inhibition was inactive: -0.0709%.

With `COc1cc(OC)cc(C(=O)NCC2(N3CCCCC3)CCCCC2)c1`, the inhibition was inactive: -1.38%.

Take `O=c1[nH]c2ccccc2n1C1CCN(C(c2ccnc3ccccc23)c2nnnn2C2CCCCC2)CC1` (stereo not drawn): the inhibition is inactive: 6.19%.

As for `CN(C)c1ccc(C(=O)NCC2(N3CCCCC3)CCCCC2)cc1`, the inhibition was inactive: 2.63%.

As to `Cn1c(=O)[nH]cc(N(CCCl)CCCl)c1=O`, the inhibition was inactive: -0.172%.

With `O=C(NCC1(N2CCCCC2)CCCCC1)c1ccco1`, the inhibition is inactive: -6.02%.

As to `CCN1CCC(Nc2cccc(F)c2)CC1`, the inhibition is inactive: 0.427%.

As for `COc1ccc(C(c2nnnn2C2CCCCC2)N2CCC(n3c(=O)[nH]c4ccccc43)CC2)cc1` (stereo not drawn), the inhibition is inactive: 12.6%.

`CC(C)(C)n1nnnc1C(c1ccnc2ccccc12)N1CCC(n2c(=O)[nH]c3ccccc32)CC1` (stereo not drawn): the inhibition is inactive: 4.18%.

Turning to `Cc1ccccc1NC1(C#N)CCN(Cc2ccccc2)CC1`, the inhibition was inactive: -2.63%.

For `O=C(O)C1(Nc2ccccc2)CCN(Cc2ccccc2)CC1`, the inhibition is inactive: 2.55%.

On to `NN(c1ccccc1)C1CCN(CCc2ccccc2)CC1`, for which the inhibition was inactive: 6.5%.

Consider `CC(C)(C)OC(=O)N1CCC(Nc2ccccc2)CC1`, for which the inhibition is inactive: -2.72%.

`O=c1[nH]c2ccccc2n1C1CCN(C(c2cc3ccccc3o2)c2nnnn2C2CCCC2)CC1` (stereo not drawn): the inhibition is inactive: -8.2%.

Take `CCCOc1ccc(C(=O)NCC2(N(C)C)CCCCC2)cc1`: the inhibition is inactive: 3.38%.

For `CN1CCC(Nc2ccc(F)c(Cl)c2)CC1`, the inhibition was inactive: 4.01%.

As to `CCOc1ncccc1C(=O)NCC1(N2CCOCC2)CCCCC1`, the inhibition is inactive: 3.36%.

Regarding `CN1CCC(Nc2ccc(Cl)cc2)CC1`, the inhibition is inactive: 0.334%.

For `COc1cccc(C(c2nnnn2C2CCCC2)N2CCC(n3c(=O)[nH]c4ccccc43)CC2)c1OC` (stereo not drawn), the inhibition was inactive: 4.09%.

Consider `COc1cc(OC)cc(C(=O)NCC2(N3CCOCC3)CCCCC2)c1`, for which the inhibition was inactive: 3.46%.

In the case of `COc1cccc(C(=O)N(c2cc(C)cc(C)c2)C2CCN(C(=O)OC(C)(C)C)CC2)c1`, the inhibition is inactive: -1.73%.

As for `CCC(CO)(C(=O)OC1CN2CCC1CC2)c1ccccc1` (stereo not drawn), the inhibition is inactive: 0.47%.

For `O=c1[nH]c2ccccc2n1C1CCN(C(c2cccs2)c2nnnn2C2CCCCC2)CC1` (stereo not drawn), the inhibition was inactive: -2.62%.

Take `O=c1[nH]c2ccccc2n1C1CCN(C(c2ccnc3ccccc23)c2nnnn2C2CCCC2)CC1` (stereo not drawn): the inhibition was inactive: -0.587%.

For `COc1ccc(C(=O)NCC2(N3CCOCC3)CCCCC2)cc1OC`, the inhibition is inactive: -5.88%.

In the case of `COc1cc(C(=O)NCC2(N3CCOCC3)CCCCC2)cc(OC)c1C`, the inhibition is inactive: -2.79%.

On to `CCCCn1nnnc1C(c1ccccc1)N1CCC(n2c(=O)[nH]c3ccccc32)CC1` (stereo not drawn), for which the inhibition is inactive: 4.47%.

Turning to `O=C(NCC1(N2CCOCC2)CCCCC1)c1cc(Br)ccc1Cl`, the inhibition is inactive: 1.54%.

`O=c1[nH]c2ccccc2n1C1CCN(C(c2cccs2)c2nnnn2C2CCCC2)CC1` (stereo not drawn): the inhibition was inactive: 0.903%.

In the case of `O=C(OC1CN2CCC1CC2)C1c2ccccc2C=Cc2ccccc21` (stereo not drawn), the inhibition is inactive: 0.285%.

`CCCCn1nnnc1C(c1cccc(OC)c1OC)N1CCC(n2c(=O)[nH]c3ccccc32)CC1` (stereo not drawn): the inhibition was inactive: 0.416%.

For `CCOC(=O)N1CCC(Nc2ccc(C)cc2)CC1`, the inhibition is inactive: 0.45%.

`COc1cccc(C(c2nnnn2C(C)(C)C)N2CCC(n3c(=O)[nH]c4ccccc43)CC2)c1OC` (stereo not drawn): the inhibition was inactive: 2.12%.

On to `N/C(=N\O)c1c(N)no[n+]1[O-]`, for which the inhibition was inactive: -2.65%.

Take `N#Cc1ccc(C(=O)NCC2(N3CCCCC3)CCCCC2)cc1`: the inhibition is inactive: -2.54%.

In the case of `CC(C)(C)OC(=O)N1CCC(N(C(=O)c2ccccc2)c2ccc(Cl)cc2)CC1`, the inhibition is inactive: -3.11%.

Consider `CC(C)(C)n1nnnc1C(c1cccc2ccccc12)N1CCC(n2c(=O)[nH]c3ccccc32)CC1` (stereo not drawn), for which the inhibition is inactive: 7.93%.

On to `CN(C)C1(CNC(=O)c2cccc(C#N)c2)CCCCC1`, for which the inhibition is inactive: 3.01%.

With `Cc1cc(N(CCCl)CCCl)ccc1C=O`, the inhibition was inactive: 35.7%.

As for `CCCN1CCC(Nc2cc(OC)cc(OC)c2)CC1`, the inhibition is inactive: -6.26%.

For the compound `O=c1[nH]c2ccccc2n1C1CCN(C(c2ccccc2)c2nnnn2C2CCCC2)CC1` (stereo not drawn), the inhibition is inactive: 5.95%.

As to `c1ccc(CN2CCC(Nc3ccccc3)CC2)cc1`, the inhibition was inactive: -2.14%.

With `O=c1[nH]c2ccccc2n1C1CCN(C(c2ccccc2OC(F)(F)F)c2nnnn2C2CCCC2)CC1` (stereo not drawn), the inhibition was inactive: -0.931%.

In the case of `N#CC1(Nc2ccccc2)CCN(CCc2ccccc2)CC1`, the inhibition was inactive: -0.741%.

For the compound `CCN1CCC(Nc2ccc(Cl)cc2)CC1`, the inhibition is inactive: 3.72%.

`CSc1ccc(C(=O)NCC2(N3CCOCC3)CCCCC2)cc1`: the inhibition is inactive: 2.68%.

Turning to `O=C(NCC1(N2CCCCC2)CCCCC1)c1cccc([N+](=O)[O-])c1`, the inhibition is inactive: -15%.

As for `O=C(NCC1(N2CCCCC2)CCCCC1)c1ccc(OC(F)F)cc1`, the inhibition was inactive: 3.41%.

Regarding `CC(C)(C)n1nnnc1C(c1ccccc1OC(F)(F)F)N1CCC(n2c(=O)[nH]c3ccccc32)CC1` (stereo not drawn), the inhibition was inactive: 4.6%.

On to `COc1cc(C(=O)NCC2(N3CCCCC3)CCCCC2)ccc1OC(F)F`, for which the inhibition is inactive: 5.03%.

`O=C(NCC1(N2CCOCC2)CCCCC1)c1cc(=O)[nH]c2ccccc12`: the inhibition was inactive: 4.65%.

With `CN1CCN(CCOC(=O)C(O)(c2ccccc2)c2ccccc2)CC1`, the inhibition is inactive: 0.0642%.

For the compound `CC(C)c1ccc(C(=O)NCC2(N3CCOCC3)CCCCC2)cc1`, the inhibition was inactive: -0.577%.

`COc1ccc(NC2CCN(C(=O)OC(C)(C)C)CC2)cc1`: the inhibition is inactive: -3.3%.

As for `CCCCn1nnnc1C(c1cccc2ccccc12)N1CCC(n2c(=O)[nH]c3ccccc32)CC1` (stereo not drawn), the inhibition was inactive: 3.61%.

With `O=C(NCC1(N2CCCCC2)CCCCC1)c1cccc(C(F)(F)F)c1`, the inhibition is inactive: 3.52%.

With `CCC(c1nnnn1C(C)(C)C)N1CCC(n2c(=O)[nH]c3ccccc32)CC1` (stereo not drawn), the inhibition is inactive: 1.02%.

In the case of `O=C(NCC1(N2CCOCC2)CCCCC1)c1cc(F)c(F)cc1Cl`, the inhibition is inactive: 5.03%.

In the case of `COc1cc(OC)c(C(=O)NCC2(N(C)C)CCCCC2)cc1OC`, the inhibition was inactive: -0.683%.

Turning to `CCCCn1nnnc1C(c1ccnc2ccccc12)N1CCC(n2c(=O)[nH]c3ccccc32)CC1` (stereo not drawn), the inhibition was inactive: -2.38%.

For `CC(C)c1ccc(NC2CCN(C(=O)OC(C)(C)C)CC2)cc1`, the inhibition was inactive: 3.69%.

In the case of `CCCCn1nnnc1C(c1ccccc1OC(F)(F)F)N1CCC(n2c(=O)[nH]c3ccccc32)CC1` (stereo not drawn), the inhibition is inactive: 2.35%.

In the case of `CN(C)c1cccc(C(=O)NCC2(N3CCCCC3)CCCCC2)c1`, the inhibition was inactive: -1.18%.

Take `COc1ccc(CN(CCCl)CCCl)cc1Cl`: the inhibition is inactive: 1.95%.

Turning to `COc1ccc(C(c2nnnn2C2CCCC2)N2CCC(n3c(=O)[nH]c4ccccc43)CC2)cc1` (stereo not drawn), the inhibition was inactive: 9.04%.

Regarding `CCCOc1ccc(C(=O)NCC2(N(C)C)CCCCC2)cc1OC`, the inhibition is inactive: 0.693%.

`Cc1ccc(C(=O)NCC2(N(C)C)CCCCC2)o1`: the inhibition was inactive: -1.71%.

With `CN1CCC(Nc2cccc(F)c2)CC1`, the inhibition was inactive: 1.69%.

Take `O=C(NCC1(N2CCCCC2)CCCCC1)c1cncc(Br)c1`: the inhibition was inactive: -0.343%.

As to `Cc1cccc(NC2(C#N)CCN(Cc3ccccc3)CC2)c1`, the inhibition was inactive: 4.83%.

On to `CSc1ccccc1C(=O)NCC1(N2CCCCC2)CCCCC1`, for which the inhibition was inactive: -2.19%.

As for `CC(C)(C)OC(=O)N1CCC(N(C(=O)c2ccccc2)c2ccc(F)cc2)CC1`, the inhibition was inactive: 5.99%.

For `COc1ccc(C(=O)NCC2(N3CCCCC3)CCCCC2)c(OC)c1OC`, the inhibition was inactive: -1.14%.

`CCC(c1nnnn1C1CCCC1)N1CCC(n2c(=O)[nH]c3ccccc32)CC1` (stereo not drawn): the inhibition is inactive: -1.62%.

For the compound `COc1ccc(C(=O)NCC2(N3CCCCC3)CCCCC2)cc1`, the inhibition is inactive: -3.14%.

Take `O=C(NCC1(N2CCCCC2)CCCCC1)c1cccs1`: the inhibition was inactive: -12.6%.

Turning to `CCCCn1nnnc1C(CC)N1CCC(n2c(=O)[nH]c3ccccc32)CC1` (stereo not drawn), the inhibition is inactive: -4.22%.

With `CCCCn1nnnc1C(c1cccs1)N1CCC(n2c(=O)[nH]c3ccccc32)CC1` (stereo not drawn), the inhibition was inactive: -0.199%.

As to `O=C(NCC1(N2CCCCC2)CCCCC1)c1ccc(=O)[nH]c1`, the inhibition was inactive: 0.265%.

As to `COc1ccc(Cl)cc1C(=O)NCC1(N2CCOCC2)CCCCC1`, the inhibition is inactive: 0.126%.

On to `N#CC1(Nc2ccccc2)CCN(Cc2ccccc2)CC1`, for which the inhibition was inactive: 6.63%.

On to `O=C(NCC1(N2CCCCC2)CCCCC1)c1ccc(Cl)s1`, for which the inhibition was inactive: 4.08%.

As to `O=C(OC1CN2CCC1CC2)C1c2ccccc2Oc2ccccc21` (stereo not drawn), the inhibition is inactive: 8.72%.

`O=c1[nH]c2ccccc2n1C1CCN(C(c2cc3ccccc3o2)c2nnnn2C2CCCCC2)CC1` (stereo not drawn): the inhibition is inactive: -3.78%.

Regarding `CCCCn1nnnc1C(c1ccc(OC)cc1)N1CCC(n2c(=O)[nH]c3ccccc32)CC1` (stereo not drawn), the inhibition is inactive: 4.69%.

`CCOC(=O)N1CCC(Nc2ccc(OC)cc2)CC1`: the inhibition was inactive: -1.74%.

As for `Cc1cc(C)cc(N(C(=O)c2ccccc2)C2CCN(C(=O)OC(C)(C)C)CC2)c1`, the inhibition was inactive: 0.946%.

For the compound `O=C(NCC1(N2CCCCC2)CCCCC1)c1ccc(Cl)nc1`, the inhibition was inactive: -6.47%.

As for `O=c1[nH]c2ccccc2n1C1CCN(C(c2ccccc2OC(F)(F)F)c2nnnn2C2CCCCC2)CC1` (stereo not drawn), the inhibition is inactive: 0.654%.

Regarding `O=C(NCC1(N2CCOCC2)CCCCC1)c1cc2ccccc2o1`, the inhibition was inactive: -2.52%.

For the compound `COc1ccc(NC2CCN(CCc3ccccc3)CC2)c(OC)c1`, the inhibition was inactive: -2.37%.

Regarding `CCOC(=O)N1CCC(Nc2ccc(F)cc2)CC1`, the inhibition is inactive: 2.91%.

As for `O=P1(N(CCCl)CCCl)SCCCS1`, the inhibition is inactive: 2.49%.

As to `CCCCn1nnnc1C(c1cc2ccccc2o1)N1CCC(n2c(=O)[nH]c3ccccc32)CC1` (stereo not drawn), the inhibition was inactive: 10.3%.

For `CCCCOc1ccc(C(=O)NCC2(N3CCOCC3)CCCCC2)cc1`, the inhibition is inactive: -0.56%.

Regarding `O=C(NCC1(N2CCCCC2)CCCCC1)c1ccc(F)cc1`, the inhibition is inactive: -4.06%.

For the compound `O=C1CCN(Cc2ccccc2)CC1`, the inhibition is inactive: -8.59%.

With `CC(C)(C)n1nnnc1C(c1ccccc1)N1CCC(n2c(=O)[nH]c3ccccc32)CC1` (stereo not drawn), the inhibition was inactive: 3.41%.

For `CCOc1ccc(C)cc1CN(CCCl)CCCl`, the inhibition was inactive: -29%.

For the compound `CCOC(=O)N1CCC(Nc2cccc(C)c2)CC1`, the inhibition is inactive: 1.5%.

With `COc1cc(C(=O)NCC2(N(C)C)CCCCC2)ccc1OC(F)F`, the inhibition is inactive: -3.76%.

As to `O=c1[nH]c2ccccc2n1C1CCN(C(c2cccc3ccccc23)c2nnnn2C2CCCC2)CC1` (stereo not drawn), the inhibition is inactive: 4.14%.

For the compound `O=c1[nH]c2ccccc2n1C1CCN(C(c2ccccc2)c2nnnn2C2CCCCC2)CC1` (stereo not drawn), the inhibition is inactive: 6.55%.
